How the values were obtained:
[1] = tested on: P. aeruginosa (strain PAO1) whole cells and membrane fractions; format: binding, Pseudomonas aeruginosa
[2] = tested on: rhlI / C4-HSL in P. aeruginosa PAO1; assay: Quorum sensing activation (rhlI mRNA, C4-HSL in supernatants); format: cell-based, Pseudomonas aeruginosa

Row | Substance | binding to P. aeruginosa cells / cell membranes (ELISA) [1] | rhlI transcription (Northern blot) [2]
1 | IL-2: human cytokine | No binding was observed | 
2 | TNF-α: human cytokine | No binding was observed | but not
